Target: DNA-PK (purified DNA-PKcs and Ku70/80) (Homo sapiens, UniProt P78527)
Experiment: autophosphorylation, immunoblot for DNA-PKcs phosphoserine […]
Details: 10 mM MgCl2, pH 7.5, 27 °C
[1] = 1 mM, sonicated calf thymus DNA, 3 min

Protein sequences, listed by entry. Tags and fused reporters are not part of them.
UniProt P78527, whole entry: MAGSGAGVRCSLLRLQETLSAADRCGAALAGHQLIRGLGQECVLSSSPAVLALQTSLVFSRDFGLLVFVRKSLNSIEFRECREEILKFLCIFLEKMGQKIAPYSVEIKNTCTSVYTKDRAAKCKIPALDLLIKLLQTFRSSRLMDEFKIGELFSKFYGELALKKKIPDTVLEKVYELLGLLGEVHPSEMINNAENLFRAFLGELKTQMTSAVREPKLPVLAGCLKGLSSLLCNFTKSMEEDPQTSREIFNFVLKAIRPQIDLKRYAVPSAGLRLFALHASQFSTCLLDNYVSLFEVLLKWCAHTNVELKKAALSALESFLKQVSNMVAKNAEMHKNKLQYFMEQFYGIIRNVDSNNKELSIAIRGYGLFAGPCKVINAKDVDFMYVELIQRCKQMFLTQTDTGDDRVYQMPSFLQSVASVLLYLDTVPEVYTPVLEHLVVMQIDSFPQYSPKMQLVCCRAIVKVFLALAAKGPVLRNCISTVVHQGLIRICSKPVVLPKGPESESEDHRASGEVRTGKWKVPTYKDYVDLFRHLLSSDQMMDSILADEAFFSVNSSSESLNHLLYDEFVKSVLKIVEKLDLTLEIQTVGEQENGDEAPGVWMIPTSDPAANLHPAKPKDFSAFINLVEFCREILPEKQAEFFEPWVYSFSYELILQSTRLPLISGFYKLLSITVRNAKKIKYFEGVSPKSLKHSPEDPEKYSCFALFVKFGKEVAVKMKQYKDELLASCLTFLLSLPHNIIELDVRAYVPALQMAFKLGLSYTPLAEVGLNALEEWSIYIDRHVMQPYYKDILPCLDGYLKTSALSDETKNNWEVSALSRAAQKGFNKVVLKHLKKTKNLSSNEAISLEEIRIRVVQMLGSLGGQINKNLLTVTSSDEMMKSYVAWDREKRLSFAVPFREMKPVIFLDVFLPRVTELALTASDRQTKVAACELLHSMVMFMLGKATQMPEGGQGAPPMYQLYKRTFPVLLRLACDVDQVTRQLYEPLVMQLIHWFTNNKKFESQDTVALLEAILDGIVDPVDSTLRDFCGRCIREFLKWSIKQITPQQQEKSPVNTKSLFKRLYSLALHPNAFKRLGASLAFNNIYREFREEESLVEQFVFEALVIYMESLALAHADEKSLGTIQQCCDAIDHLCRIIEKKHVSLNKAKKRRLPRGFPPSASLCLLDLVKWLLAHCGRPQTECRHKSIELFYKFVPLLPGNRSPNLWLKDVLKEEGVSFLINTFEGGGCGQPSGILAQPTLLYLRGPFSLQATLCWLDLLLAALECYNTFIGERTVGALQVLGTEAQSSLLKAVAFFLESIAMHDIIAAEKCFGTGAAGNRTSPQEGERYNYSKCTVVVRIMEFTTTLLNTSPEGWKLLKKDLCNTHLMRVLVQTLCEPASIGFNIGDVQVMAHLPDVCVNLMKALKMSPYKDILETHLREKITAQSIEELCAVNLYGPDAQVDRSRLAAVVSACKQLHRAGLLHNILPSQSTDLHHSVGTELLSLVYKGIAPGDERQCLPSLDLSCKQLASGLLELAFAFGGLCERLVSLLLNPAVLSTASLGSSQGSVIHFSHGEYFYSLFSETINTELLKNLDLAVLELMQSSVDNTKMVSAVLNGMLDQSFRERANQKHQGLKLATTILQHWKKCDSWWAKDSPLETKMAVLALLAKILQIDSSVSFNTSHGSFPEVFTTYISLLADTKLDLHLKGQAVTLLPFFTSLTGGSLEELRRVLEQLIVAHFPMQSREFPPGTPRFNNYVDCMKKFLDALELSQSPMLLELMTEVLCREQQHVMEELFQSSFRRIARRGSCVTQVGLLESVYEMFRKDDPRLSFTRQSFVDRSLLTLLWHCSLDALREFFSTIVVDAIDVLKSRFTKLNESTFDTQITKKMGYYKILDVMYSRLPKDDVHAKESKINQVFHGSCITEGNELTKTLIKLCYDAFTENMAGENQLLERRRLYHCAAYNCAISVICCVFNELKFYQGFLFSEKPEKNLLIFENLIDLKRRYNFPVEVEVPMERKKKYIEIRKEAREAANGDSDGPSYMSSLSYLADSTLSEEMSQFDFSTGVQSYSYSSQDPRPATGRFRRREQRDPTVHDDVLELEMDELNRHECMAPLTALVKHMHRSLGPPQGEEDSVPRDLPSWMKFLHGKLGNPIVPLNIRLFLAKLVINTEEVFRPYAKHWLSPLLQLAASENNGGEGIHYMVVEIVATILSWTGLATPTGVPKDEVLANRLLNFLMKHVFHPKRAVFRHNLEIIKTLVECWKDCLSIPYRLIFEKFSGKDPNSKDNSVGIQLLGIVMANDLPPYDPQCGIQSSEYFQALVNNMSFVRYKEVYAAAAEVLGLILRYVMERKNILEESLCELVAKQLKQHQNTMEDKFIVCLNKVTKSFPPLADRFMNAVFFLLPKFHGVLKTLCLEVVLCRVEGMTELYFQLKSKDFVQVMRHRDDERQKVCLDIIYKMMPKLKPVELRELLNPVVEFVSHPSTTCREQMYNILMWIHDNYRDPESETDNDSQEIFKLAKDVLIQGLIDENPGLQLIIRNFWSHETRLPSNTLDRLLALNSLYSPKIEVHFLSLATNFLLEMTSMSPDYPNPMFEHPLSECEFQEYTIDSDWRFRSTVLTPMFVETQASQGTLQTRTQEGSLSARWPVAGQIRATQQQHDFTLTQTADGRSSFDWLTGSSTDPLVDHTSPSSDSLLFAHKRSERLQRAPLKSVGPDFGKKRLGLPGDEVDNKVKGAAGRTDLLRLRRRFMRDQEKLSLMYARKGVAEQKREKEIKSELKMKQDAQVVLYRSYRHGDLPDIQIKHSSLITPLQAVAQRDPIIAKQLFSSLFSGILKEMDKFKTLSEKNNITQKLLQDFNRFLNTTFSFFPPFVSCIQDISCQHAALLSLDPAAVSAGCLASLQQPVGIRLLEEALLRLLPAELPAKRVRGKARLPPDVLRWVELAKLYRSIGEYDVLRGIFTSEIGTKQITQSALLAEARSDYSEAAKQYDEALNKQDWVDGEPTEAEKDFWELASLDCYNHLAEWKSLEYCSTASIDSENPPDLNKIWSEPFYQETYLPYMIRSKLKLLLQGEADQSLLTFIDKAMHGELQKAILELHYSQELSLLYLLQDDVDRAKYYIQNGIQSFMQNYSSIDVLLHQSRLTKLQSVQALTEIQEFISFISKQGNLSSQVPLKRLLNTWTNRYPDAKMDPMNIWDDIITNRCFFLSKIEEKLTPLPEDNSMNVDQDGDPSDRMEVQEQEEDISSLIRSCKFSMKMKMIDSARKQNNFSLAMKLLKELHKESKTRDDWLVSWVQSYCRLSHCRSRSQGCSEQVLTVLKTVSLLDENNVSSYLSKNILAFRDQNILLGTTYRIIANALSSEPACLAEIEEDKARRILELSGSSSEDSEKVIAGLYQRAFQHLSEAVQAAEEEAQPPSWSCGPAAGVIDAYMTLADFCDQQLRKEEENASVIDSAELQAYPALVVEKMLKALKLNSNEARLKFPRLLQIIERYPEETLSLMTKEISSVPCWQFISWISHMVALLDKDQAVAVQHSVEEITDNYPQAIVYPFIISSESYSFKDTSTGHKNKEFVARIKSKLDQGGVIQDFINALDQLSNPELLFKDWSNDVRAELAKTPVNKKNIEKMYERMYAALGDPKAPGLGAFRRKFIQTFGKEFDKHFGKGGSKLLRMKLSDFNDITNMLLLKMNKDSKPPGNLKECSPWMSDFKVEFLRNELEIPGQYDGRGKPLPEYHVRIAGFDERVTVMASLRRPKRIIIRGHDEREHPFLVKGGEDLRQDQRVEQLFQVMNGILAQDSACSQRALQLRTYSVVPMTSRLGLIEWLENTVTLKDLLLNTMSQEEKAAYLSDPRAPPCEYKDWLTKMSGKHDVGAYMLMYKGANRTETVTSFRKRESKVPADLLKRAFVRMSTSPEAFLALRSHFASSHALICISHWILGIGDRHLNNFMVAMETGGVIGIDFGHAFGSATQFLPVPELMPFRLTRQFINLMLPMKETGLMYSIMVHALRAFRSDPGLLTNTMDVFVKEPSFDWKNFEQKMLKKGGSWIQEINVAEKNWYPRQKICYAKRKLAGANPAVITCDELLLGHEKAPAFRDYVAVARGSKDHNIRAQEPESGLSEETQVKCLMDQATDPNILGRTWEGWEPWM

Row | SMILES | autophosphorylation, immunoblot for DNA-PKcs phosphoserine 2056 (inhibitor, DNA-enhanced autophosphorylation of Ser2056) | autophosphorylation, immunoblot for DNA-PKcs phosphoserine 2056 [1]
1 | O=c1cc(N2CCOCC2)oc2c(-c3cccc4c3sc3ccccc34)cccc12 | this phosphorylation was sensitive to the DNA-PKcs inhibitor Nu7441 | 
2 | Nc1ncnc2c1ncn2[C@@H]1O[C@H](COP(=O)(O)OP(=O)(O)OP(=O)(O)O)[C@@H](O)[C@H]1O |  | able to support DNA-enhanced autophosphorylation in the presence of either ATP or dATP
3 | Nc1ncnc2c1ncn2[C@H]1C[C@H](O)[C@@H](COP(=O)(O)OP(=O)(O)OP(=O)(O)O)O1 |  | DNA-PK is catalytically active and able to support DNA-enhanced autophosphorylation in the presence of either ATP or dATP

Reference: PMC13649775 (2026)
